Reference: publication PMC5983490, “White-rot basidiomycetes Junghuhnia nitida and Steccherinum bourdotii: Oxidative potential and laccase properties in comparison with Trametes hirsuta and Coriolopsis caperata” (PLoS ONE, 2018)

Substrate: CCn1c(=NN=c2sc3cc(S(=O)(=O)O)ccc3n2CC)sc2cc(S(=O)(=O)O)ccc21
Experiment: purified protein
Conditions: 0.1 M McIlvaine buffer pH 4.5, 25 °C

B1: ThL (Trametes hirsuta laccase) (Trametes hirsuta) (protein)
chain: AVGPVADLTITDAAVSPDGFSRQAVVVNGVTPGPLVAGNIGDRFQLNVIDNLTNHTMLKSTSIHWHGFFQHGTNWADGPAFINQCPISPGHSFLYDFQVPDQAGTFWYHSHLSTQYCDGLRGPFVVYDPNDPHASRYDVDNDDTVITLADWYHTAAKLGPRFPGGADATLINGKGRAPSDSPAELSVIKVTKGKRYRFRLVSLSCNPNHTFSIDGHNLTIIEVDSVNSQPLEVDSIQIFAAQRYSFVLDANQAVDNYWIRANPNFGNVGFDGGINSAILRYDGAPAVEPTTNQTTSVKPLNEVDLHPLVSTPVPGSPSSGGVDKAINMAFNFNGSNFFINGASFVPPTVPVLLQILSGAQTAQDLLPSGSVYVLPSNASIEISFPATAAAPGAPHPFHLHGHTFAVVRSAGSTVYNYDNPIFRDVVSTGTPAAGDNVTIRFDTNNPGPWFLHCHIDFHLEGGFAVVMAEDTPDVKAVNPVPQAWSDLCPTYDALDPNDQ
For B1, the Km was 17 ± 2 µM, the kcat was 122 s⁻¹ and the kcat/Km was 7.18e+06 M⁻¹ s⁻¹.
